In patent US20240376189A1:

Molecular target: human C5 (human) (UniProt P01031)
Test: cell-based or functional assay

Sheep RBC lysis assay IC50: 1.23 µg/mL
Substance: Soliris (antibody)
